# Test results reported in patent US6069177A, “3-Hydroxy-propanamine derived neuronal reuptake inhibitors” (priority 1997, dated 2000).
# The chains behind the UniProt entries cited, without tags or fusion partners. Residues count along the entry.
# UniProt P31652, whole entry: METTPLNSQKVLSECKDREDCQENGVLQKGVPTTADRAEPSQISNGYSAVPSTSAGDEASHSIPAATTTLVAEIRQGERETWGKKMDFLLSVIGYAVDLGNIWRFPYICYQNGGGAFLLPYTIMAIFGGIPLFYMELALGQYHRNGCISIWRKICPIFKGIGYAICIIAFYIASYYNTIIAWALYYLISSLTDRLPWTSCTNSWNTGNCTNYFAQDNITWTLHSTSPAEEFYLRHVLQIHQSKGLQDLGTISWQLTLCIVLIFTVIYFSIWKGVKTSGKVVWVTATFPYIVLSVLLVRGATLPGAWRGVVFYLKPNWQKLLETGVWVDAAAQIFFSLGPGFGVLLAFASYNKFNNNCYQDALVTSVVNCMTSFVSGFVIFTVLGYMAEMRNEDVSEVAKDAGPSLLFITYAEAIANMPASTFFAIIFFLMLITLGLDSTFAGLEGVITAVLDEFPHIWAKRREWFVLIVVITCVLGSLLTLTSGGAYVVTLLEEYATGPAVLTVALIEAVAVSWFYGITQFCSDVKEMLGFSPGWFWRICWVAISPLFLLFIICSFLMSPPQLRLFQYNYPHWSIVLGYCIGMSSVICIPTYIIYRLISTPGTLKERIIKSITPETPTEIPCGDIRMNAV
# UniProt P23977, whole entry: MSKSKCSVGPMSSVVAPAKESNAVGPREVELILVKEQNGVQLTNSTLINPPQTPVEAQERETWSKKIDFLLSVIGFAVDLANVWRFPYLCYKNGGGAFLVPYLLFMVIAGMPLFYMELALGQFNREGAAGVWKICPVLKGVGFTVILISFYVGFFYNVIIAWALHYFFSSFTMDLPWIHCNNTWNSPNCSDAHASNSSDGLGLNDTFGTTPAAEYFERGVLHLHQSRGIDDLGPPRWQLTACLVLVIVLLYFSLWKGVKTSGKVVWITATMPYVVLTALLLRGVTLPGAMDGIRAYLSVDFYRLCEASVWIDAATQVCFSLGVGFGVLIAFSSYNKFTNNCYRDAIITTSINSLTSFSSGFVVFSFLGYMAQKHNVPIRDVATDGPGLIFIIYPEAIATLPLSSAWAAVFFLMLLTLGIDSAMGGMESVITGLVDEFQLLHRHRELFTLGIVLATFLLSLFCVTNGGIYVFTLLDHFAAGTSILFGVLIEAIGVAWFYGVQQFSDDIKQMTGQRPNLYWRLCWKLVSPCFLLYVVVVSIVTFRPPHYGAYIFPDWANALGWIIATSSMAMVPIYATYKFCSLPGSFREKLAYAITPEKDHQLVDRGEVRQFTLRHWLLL
# UniProt Q63380, 1-617: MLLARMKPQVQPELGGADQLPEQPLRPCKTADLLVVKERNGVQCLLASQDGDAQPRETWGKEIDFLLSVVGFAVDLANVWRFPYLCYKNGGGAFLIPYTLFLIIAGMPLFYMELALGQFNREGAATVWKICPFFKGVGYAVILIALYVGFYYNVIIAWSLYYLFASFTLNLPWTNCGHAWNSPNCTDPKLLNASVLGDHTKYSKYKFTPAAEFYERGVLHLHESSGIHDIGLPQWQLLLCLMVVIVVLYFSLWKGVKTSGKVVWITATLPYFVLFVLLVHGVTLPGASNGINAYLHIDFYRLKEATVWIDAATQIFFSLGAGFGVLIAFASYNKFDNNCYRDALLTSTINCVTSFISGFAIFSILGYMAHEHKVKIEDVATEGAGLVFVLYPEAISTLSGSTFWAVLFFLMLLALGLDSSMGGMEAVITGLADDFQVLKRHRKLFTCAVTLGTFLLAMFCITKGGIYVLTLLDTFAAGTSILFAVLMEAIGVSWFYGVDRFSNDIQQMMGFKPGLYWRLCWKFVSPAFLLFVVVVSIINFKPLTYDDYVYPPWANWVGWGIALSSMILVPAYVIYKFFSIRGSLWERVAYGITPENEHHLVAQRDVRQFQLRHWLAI
# What was measured:
# [1] = molecular target: T1, 5-HT reuptake into rat brain synaptosomes (Rattus norvegicus, UniProt P31652); assay: 5-HT reuptake inhibition in rat brain synaptosomes; assay type: biochemical, rat (male Sprague-Dawley), cortical tissue; conditions: Ki (5-HT)/Ki (compound or drug); Prozac to Serzone derived from literature Ki
# T1 construct: A crude synaptosomal (P2) fraction was prepared; tissue Harlan Sprague-Dawley (animals); host or cells: rat cerebral cortex, crude synaptosomal (P2) fraction
# [2] = molecular target: T2, DA reuptake into rat brain synaptosomes (Rattus norvegicus, UniProt P23977); assay: DA reuptake inhibition in rat brain synaptosomes; assay type: biochemical, rat (male Sprague-Dawley), striatal tissue
# T2 construct: A crude synaptosomal (P2) fraction was prepared; tissue Harlan Sprague-Dawley (animals); host or cells: rat striatum, crude synaptosomal (P2) fraction
# [3] = molecular target: T3, NE reuptake into rat brain synaptosomes (Rattus norvegicus, UniProt Q63380); assay type: biochemical, rat (male Sprague-Dawley), hippocampal tissue; conditions: Ki (NE)/Ki (compound or drug); Prozac to Serzone derived from literature Ki
# T3 construct: A crude synaptosomal (P2) fraction was prepared; tissue Harlan Sprague-Dawley (animals); host or cells: rat hippocampus, crude synaptosomal (P2) fraction
smiles,measurement,setting,value
"Fc1ccc([C@@H]2CCNC[C@H]2COc2ccc3c(c2)OCO3)cc1 [Paxil ®, reference compound]",5-HT (Rat) Reuptake Inhibition Potency,[1],25.3
"CNCC[C@@H](Oc1ccccc1C)c1ccccc1 [Tomoxetine, reference compound]",DA (Rat) Reuptake Inhibition Potency,"[2]; Ki (DA)/Ki (compound or drug), Prozac to Serzone derived from literature Ki",0.05
"COc1ccc(C(CN(C)C)C2(O)CCCCC2)cc1 (stereo not shown) [Effexor ®, reference compound]",Ki,[2]; rat brain synaptosomes,360 ± 53.2 nM
same,NE (Rat) Reuptake Inhibition Potency,[3],0.86
